Measured values from US20150336996A1, “MANGANESE-BASED MAGNETIC RESONANCE CONTRAST AGENTS” (THE GENERAL HOSPITAL CORPORATION, priority 2013, published 2015).

Test: UV spectrum as a function of pH (phenol deprotonation pKa)
Assay type: physicochemical
Conditions: fit of UV absorbance vs pH
Description: To probe the speciation of the manganese complexes in solution, pH titrations of 1:1 Mn^2+:ligand were performed using a 1 N NaOH under N2 atmosphere (FIG. 21).
To determine the species that exists in these two pH ranges the UV spectrum as a function of pH was monitored (see FIGS. 22-24). […] As the pH is increased the phenol deprotonates and coordinates to the manganese center.

## 2,2′-((2-((carboxymethyl)(2-hydroxy-5-methoxybenzyl)amino)cyclohexyl)azanediyl)diacetic acid [Compound 26]
  pKa for ionization of the phenol: 5.01
